Test results as given in patent US10004732B2 (Novartis AG, priority 2014, dated 2018).

The chains behind the UniProt entries cited, without tags or fusion partners.
UniProt P42336, whole entry: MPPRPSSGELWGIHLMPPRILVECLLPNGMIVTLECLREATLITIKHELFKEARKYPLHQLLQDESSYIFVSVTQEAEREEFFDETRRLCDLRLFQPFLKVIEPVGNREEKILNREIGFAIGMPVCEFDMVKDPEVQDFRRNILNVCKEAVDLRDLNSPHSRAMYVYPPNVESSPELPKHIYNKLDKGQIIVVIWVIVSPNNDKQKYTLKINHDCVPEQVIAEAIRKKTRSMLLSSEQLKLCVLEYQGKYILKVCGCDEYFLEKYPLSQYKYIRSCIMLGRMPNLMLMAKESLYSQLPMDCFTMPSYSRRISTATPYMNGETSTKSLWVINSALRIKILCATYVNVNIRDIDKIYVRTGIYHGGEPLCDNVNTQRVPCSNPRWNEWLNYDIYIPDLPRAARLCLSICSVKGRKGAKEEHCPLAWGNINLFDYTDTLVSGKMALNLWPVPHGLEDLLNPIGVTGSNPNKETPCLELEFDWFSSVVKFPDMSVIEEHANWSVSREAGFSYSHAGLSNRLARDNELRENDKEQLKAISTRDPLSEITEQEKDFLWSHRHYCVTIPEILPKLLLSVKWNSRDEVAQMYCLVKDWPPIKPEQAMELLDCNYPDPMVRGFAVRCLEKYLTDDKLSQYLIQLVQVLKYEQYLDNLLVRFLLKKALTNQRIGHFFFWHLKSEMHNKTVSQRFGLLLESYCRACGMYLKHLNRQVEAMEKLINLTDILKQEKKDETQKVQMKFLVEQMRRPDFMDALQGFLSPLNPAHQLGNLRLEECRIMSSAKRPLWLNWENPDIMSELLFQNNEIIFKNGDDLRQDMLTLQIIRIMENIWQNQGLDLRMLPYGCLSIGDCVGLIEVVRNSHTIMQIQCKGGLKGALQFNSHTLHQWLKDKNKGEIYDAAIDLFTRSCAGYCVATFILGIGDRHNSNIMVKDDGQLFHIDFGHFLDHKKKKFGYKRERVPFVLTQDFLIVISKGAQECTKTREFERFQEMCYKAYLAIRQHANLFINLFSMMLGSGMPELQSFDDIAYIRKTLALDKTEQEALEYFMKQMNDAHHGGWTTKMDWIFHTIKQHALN

Target: PI 3-kinase alpha (Homo sapiens, UniProt P42336)
Assay: Cellular assay H2, p-AKT (Ser473) in Rat-1 cells, HTRF format
Format: cell-based
Conditions: asterisked data: version H2 (HTRF), read-out: Assay H PI3Kα

Q: For Cc1nc(N)ncc1-c1ccc(Cl)c(S(=O)(=O)NCCO)c1 [(xii), reference compound], which IC50 is on record?
A: > 10 µM
